# According to publication PMC3794980, “Identification of Conserved and HLA Promiscuous DENV3 T-Cell Epitopes” (PLoS Neglected Tropical Diseases, 2013):
# What was measured:
# Assay in all cases: biochemical
# Type in all cases: binding
# [1] = target: DRB1*0101 (Homo sapiens, UniProt P01903+P01911, A100R/D57E/F55L/F60I/F76Y/I96L/L162R/M171V/P40L/Q125E/R42F/V115G/Y59C)
# [2] = target: DRB1*0301 (Homo sapiens, UniProt P01903+P01911, A100K/A102G/A103R/A169T/F55Y/I96L/K41T/L162R/M171V/P40S/Q125H/Q178H/Q39Y/R42S/S66N/T106N/T262R/W38E/Y61H)
# [3] = target: DRB1*0401 (Homo sapiens, UniProt P01903+P01911, A100K/A169T/F76Y/I96L/K127E/L162R/M171V/N62H/P40V/Q125Y/R42H/S133A/S149N/S66Y/V115G/V209L/W38E)
# [4] = target: DRB1*0404 (Homo sapiens, UniProt P01903+P01911, A100R/A169T/F76Y/I96L/K127E/L162R/M171V/N62H/P40V/Q125Y/R42H/S133A/S149N/S66Y/V209L/W38E)
# [5] = target: DRB1*0405 (Homo sapiens, UniProt P01903+P01911, A100R/A169T/D86S/F76Y/I96L/K127E/L162R/M171V/N62H/P40V/Q125Y/R42H/S133A/S149N/S66Y/V115G/V209L/W38E)
# [6] = target: DRB1*0701 (Homo sapiens, UniProt P01903+P01911, A100R/A102G/A103Q/D57E/D86V/E43K/F76Y/K127E/L162R/M171V/P40G/Q125H/Q99D/R33Q/R42Y/R54Q/S133A/S66F/T210M/V115G/Y107V/Y59L/Y89S)
# [7] = target: DRB1*0802 (Homo sapiens, UniProt P01903+P01911, A100R/A103L/A169T/F76Y/H45Y/I96F/K41T/L162R/M171V/P40S/Q125H/Q178H/Q39Y/Q99D/R218S/R42G/S66Y/V115G/W38E)
# [8] = target: DRB1*0901 (Homo sapiens, UniProt P01903+P01911, A100R/A103E/D57H/D86V/F55Y/F60I/F76Y/I96F/K127E/L162R/M171V/P40D/Q125H/Q99R/R33Q/R42F/S133A/S66N/T210M/V115G/W38K/Y107V/Y59G/Y89S)
# [9] = target: DRB1*1501 (Homo sapiens, UniProt P01903+P01911)
# [10] = target: DRB1*1101 (Homo sapiens, UniProt P01903+P01911, A100R/A169T/A87E/I96F/K41T/L162R/M171V/P40S/Q125H/Q178H/Q39Y/Q99D/R42S/S66Y/T262R/V115G/W38E)
# [11] = target: DRB1*1302 (Homo sapiens, UniProt P01903+P01911, A100E/A169T/K41T/L162R/M171V/P40S/Q125H/Q178H/Q39Y/Q99D/R42S/S66N/T262R/V115G/W38E/Y61H)
# [12] = read-out: Binding Affinity (nM) DRB1*0404
# [13] = read-out: Binding Affinity (nM) DRB1*0405
smiles,measurement,setting,value
CC[C@H](C)[C@H](NC(=O)[C@H](C)NC(=O)[C@@H](NC(=O)[C@H](C)NC(=O)[C@H](CC(C)C)NC(=O)[C@H](CCCNC(=N)N)NC(=O)[C@H](CCCCN)NC(=O)[C@@H]1CCCN1C(=O)[C@H](CO)NC(=O)[C@H](CC(=O)O)NC(=O)[C@H](C)NC(=O)[C@H](CCC(N)=O)NC(=O)[C@H](Cc1ccccc1)NC(=O)[C@@H](N)CCCCN)[C@@H](C)O)C(=O)N[C@@H](C)C(=O)O [NS1 33-47],IC50,[1],0.046 µM
same,IC50,[2],1600 nM
same,IC50,[3],2.41 µM
same,IC50,[4]; [12],> 20000 nM
same,IC50,[5]; [13],> 20000 nM
same,IC50,[6],9700 nM
same,IC50,[7],15.6 µM
same,IC50,[8],1.53 µM
same,IC50,[9]; read-out: Binding Affinity (nM) DRB1*1501,> 20000 nM
CC[C@H](C)[C@H](N)C(=O)N[C@H](C(=O)NCC(=O)N[C@H](C(=O)N[C@@H](CC(C)C)C(=O)N[C@@H](CCC(=O)O)C(=O)N[C@@H](CCC(N)=O)C(=O)NCC(=O)N[C@@H](CCCCN)C(=O)N[C@@H](CCCNC(=N)N)C(=O)N[C@H](C(=O)N[C@@H](CC(C)C)C(=O)N[C@H](C(=O)N1CCC[C@H]1C(=O)N[C@@H](CCC(N)=O)C(=O)O)[C@@H](C)O)[C@@H](C)O)C(C)C)[C@@H](C)CC [NS1 93-107],IC50,[2],3930 nM
same,IC50,[3],15.4 µM
same,IC50,[4]; [12],> 20000 nM
same,IC50,[5]; [13],> 20000 nM
same,IC50,[6],483 nM
same,IC50,[10],16.6 µM
same,IC50,[9],1000 nM
CC(C)C[C@H](NC(=O)[C@H](CCCNC(=N)N)NC(=O)[C@H](CCCCN)NC(=O)CNC(=O)[C@@H](N)CC(N)=O)C(=O)N[C@@H](CCC(=O)O)C(=O)N1CCC[C@H]1C(=O)N[C@@H](CC(N)=O)C(=O)N[C@@H](Cc1c[nH]c2ccccc12)C(=O)N[C@@H](C)C(=O)N[C@@H](CO)C(=O)N[C@H](C(=O)N[C@@H](CCCCN)C(=O)N[C@@H](CCCCN)C(=O)N[C@@H](CC(=O)O)C(=O)O)C(C)C [NS3 61-75],IC50,[2],1690 nM
same,IC50,[3],4.59 µM
same,IC50,[4]; [12],> 20000 nM
same,IC50,[5]; [13],> 20000 nM
same,IC50,[6],2350 nM
same,IC50,[7],2.07 µM
same,IC50,[10],4.75 µM
same,IC50,[9],1500 nM
CC[C@H](C)[C@H](NC(=O)[C@@H](NC(=O)[C@H](CC(C)C)NC(=O)[C@H](CC(N)=O)NC(=O)[C@H](CCCNC(=N)N)NC(=O)[C@H](CCCCN)NC(=O)[C@@H](N)CCCCN)[C@@H](C)O)C(=O)N[C@@H](CCSC)C(=O)N[C@@H](CC(=O)O)C(=O)N[C@@H](CC(C)C)C(=O)N[C@@H](Cc1c[nH]cn1)C(=O)N1CCC[C@H]1C(=O)NCC(=O)N[C@@H](CO)C(=O)NCC(=O)O [NS3 185-199],IC50,[2],870 nM
same,IC50,[3],0.171 µM
same,IC50,[4],2360 nM
same,IC50,[5],972 nM
same,IC50,[6]; read-out: Binding Affinity (nM) DRB1*0701,> 20000 nM
same,IC50,[7],0.021 µM
same,IC50,[8],6.19 µM
same,IC50,[10],0.072 µM
same,IC50,[11],3.64 µM
same,IC50,[9],1840 nM
CC[C@H](C)[C@H](N)C(=O)N[C@@H](CCCNC(=N)N)C(=O)N[C@@H](Cc1ccc(O)cc1)C(=O)N[C@@H](CCC(N)=O)C(=O)N[C@H](C(=O)N[C@H](C(=O)N[C@@H](C)C(=O)N[C@H](C(=O)N[C@@H](CCCCN)C(=O)N[C@@H](CO)C(=O)N[C@@H](CCC(=O)O)C(=O)N[C@@H](Cc1c[nH]cn1)C(=O)N[C@H](C(=O)NCC(=O)N[C@@H](CCCNC(=N)N)C(=O)O)[C@@H](C)O)[C@@H](C)O)[C@@H](C)O)[C@@H](C)O [NS3 241-255],IC50,[1],1.13 µM
same,IC50,[2]; read-out: Binding Affinity (nM) DRB1*0301,> 20000 nM
same,IC50,[3],0.303 µM
same,IC50,[5],75 nM
same,IC50,[6],525 nM
same,IC50,[7],5.44 µM
same,IC50,[8],4.91 µM
same,IC50,[10],2.57 µM
same,IC50,[11],5.91 µM
same,IC50,[9],14500 nM

# Like-named read-outs stand apart in the source and are kept apart here.
